Only a part is listed here, and it is no random draw. Some results for these compounds are left out of this collection, so the calls shown say nothing about other tests. Calls of active or inactive are those of the source.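 How the source made its calls: active means highest replicate inhibition at or above 60% at 9 µM, even if other replicates fall short; inactive means all replicates below 60% inhibition.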
These compounds were tested on Kaposi's sarcoma herpesvirus LANA C-terminal domain (residues 932-1162) DNA binding (assay: inhibitors of KSHV C-LANA binding to DNA, primary screen, biochemical, fluorescence polarization, FAM-LBS DNA, MBP-C-LANA, single point (AID 504423;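 further: 0% = neutral control wells and 100% = 4 µM acridine orange control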)). Conditions: at 9 µM, hits give high values.

| SMILES | inhibition |
| --- | --- |
| COc1cc(C(=O)NCC2(N(C)C)CCCCC2)c([N+](=O)[O-])cc1OC | inactive: 1.69% |
| CN(C)C1(CNC(=O)c2ccc(Br)cc2)CCCCC1 | inactive: -0.339% |
| O=C(NCC1(N2CCCCC2)CCCCC1)c1cccc(Cl)c1 | inactive: -0.0159% |
| COc1cccc(C(=O)NCC2(N3CCCCC3)CCCCC2)c1 | inactive: -0.291% |
| COc1ccc(Cl)cc1C(=O)NCC1(N(C)C)CCCCC1 | inactive: -0.373% |
| O=C(OC1CN2CCC1CC2)C(CO)(c1ccccc1)c1ccccc1 (stereo not given) | inactive: 0.274% |
| CC(C)Oc1ccc(C(=O)NCC2(N(C)C)CCCCC2)cc1 | inactive: -1.74% |
| O=C(OCCN1CCCC1)C(O)(c1ccccc1)c1ccccc1 | inactive: -1.42% |
| CN(C)c1cccc(C(=O)NCC2(N(C)C)CCCCC2)c1 | inactive: -0.648% |
| COc1ccc(Br)c(C(=O)NCC2(N3CCCCC3)CCCCC2)c1 | inactive: 0.34% |
| CN1[C@@H]2CC[C@H]1CC(OC(=O)C(O)(c1ccccc1)c1ccccc1)C2 (stereo not given in full) | inactive: 0.385% |
| O=C(NCC1(N2CCCCC2)CCCCC1)c1cc([N+](=O)[O-])ccc1Cl | inactive: -1.18% |
| Cc1ccc(C(=O)NCC2(N3CCCCC3)CCCCC2)cc1 | inactive: -1.62% |
| CCN(CC)CC(C)C(C)OC(=O)C(O)(c1ccccc1)c1ccccc1 (stereo not given) | inactive: 0.733% |
| COc1cc(SC)ccc1C(=O)NCC1(N(C)C)CCCCC1 | inactive: -2.29% |
| CC(C)N1C(=O)CC2(CCN(CCOC(=O)C(O)(c3ccccc3)c3ccccc3)CC2)C1=O | inactive: -0.415% |
| Cc1ccccc1C(=O)NCC1(N2CCCCC2)CCCCC1 | inactive: -0.722% |
| CN(C)c1ccc(C(=O)NCC2(N(C)C)CCCCC2)cc1 | inactive: -0.64% |
| CN(C)C1CCCC1OC(=O)C(O)(c1ccccc1)c1ccccc1 (stereo not given) | inactive: 0.131% |
| COc1ccc(C(=O)NCC2(N(C)C)CCCCC2)cc1 | inactive: -3.92% |
| CCN1CCCC(OC(=O)C2(O)c3ccccc3C=Cc3ccccc32)C1 (stereo not given) | inactive: 2.56% |
| Cc1cc(C(=O)NCC2(N3CCCCC3)CCCCC2)ccc1[N+](=O)[O-] | inactive: 0.538% |
| O=C(NCC1(N2CCCCC2)CCCCC1)c1cccc(Br)c1 | inactive: -1.83% |
| C=CCN1CCN(CCOC(=O)C(O)(c2ccccc2)c2ccccc2)CC1 | inactive: 1.32% |
| O=C(NCC1(N2CCCCC2)CCCCC1)c1cc(F)c(F)cc1Cl | inactive: -0.757% |

From PubChem BioAssay AID504423 (Broad Institute, 2011)
